The target in this assay is T1, human RPA complex (recombinant) (human, UniProt P27694 1-616; P15927 1-270; P35244 1-121).
T1 construct: RPA70 (RPA1), human, subunit of the recombinant RPA complex; RPA32 (RPA2), human, subunit of the recombinant RPA complex; third subunit of RPA (RPA3, RPA14), human; named only in 'RPA1/2/3 complex'; also called purified RPA complex; RPA1/2/3 complex; source: E. coli, purified (Affi-Gel Blue, hydroxylapatite, Mono-Q); copies: + +
Kind of assay: pull-down; biotin labeled single fork DNA on streptavidin beads incubated first with purified RPA1/2/3 complex for 30 min, then with GST-ZFP161; 40 mM Tris-HCl pH 7.5, 150 mM NaCl, 10 mM MgCl2, BSA, DTT, ATP, glycerol; proteins retained on DNA immunoblotted. As to conditions: both partners purified.

Chains of the proteins cited; added tags and fusions are not shown.
human RPA complex (recombinant), UniProt P15927, whole entry, chain 2 of 3: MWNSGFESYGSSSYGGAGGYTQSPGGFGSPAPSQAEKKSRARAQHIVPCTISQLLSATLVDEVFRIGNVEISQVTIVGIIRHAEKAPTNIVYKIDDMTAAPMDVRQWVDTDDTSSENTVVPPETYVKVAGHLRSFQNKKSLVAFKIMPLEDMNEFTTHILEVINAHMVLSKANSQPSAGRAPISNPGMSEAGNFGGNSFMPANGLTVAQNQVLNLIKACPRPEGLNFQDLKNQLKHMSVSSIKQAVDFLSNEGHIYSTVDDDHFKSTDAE
human RPA complex (recombinant), UniProt P35244, whole entry, chain 3 of 3: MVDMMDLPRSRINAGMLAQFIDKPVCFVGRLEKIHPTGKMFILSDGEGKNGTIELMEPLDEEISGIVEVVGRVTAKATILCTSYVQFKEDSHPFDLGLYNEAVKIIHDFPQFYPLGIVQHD

B1: GST-ZFP161 (WT) (natural protein, UniProt O43829 1-449, looked up)
chain: MEFFISMSETIKYNDDDHKTLFLKTLNEQRLEGEFCDIAIVVEDVKFRAHRCVLAACSTYFKKLFKKLEVDSSSVIEIDFLRSDIFEEVLNYMYTAKISVKKEDVNLMMSSGQILGIRFLDKLCSQKRDVSSPDENNGQSKSKYCLKINRPIGDAADTQDDDVEEIGDQDDSPSDDTVEGTPPSQEDGKSPTTTLRVQEAILKELGSEEVRKVNCYGQEVESMETPESKDLGSQTPQALTFNDGMSEVKDEQTPGWTTAASDMKFEYLLYGHHREQIACQACGKTFSDEGRLRKHEKLHTADRPFVCEMCTKGFTTQAHLKEHLKIHTGYKPYSCEVCGKSFIRAPDLKKHERVHSNERPFACHMCDKAFKHKSHLKDHERRHRGEKPFVCGSCTKAFAKASDLKRHENNMHSERKQVTPSAIQSETEQLQAAAMAAEAEQQLETIACS
notes: ZFP161 (ZBTB14), 'WT' as against the N-, M- and C-terminal fragments; sub-cloned from pCMV6-Myc-ZFP161 (ORIGENE) into pGEX4T-2; also called GST-tagged ZFP161; source: E. coli, purified on glutathione beads (used on beads or eluted)
In the case of B1, the binding result is “binds”.

For the origin of these results see PMC6876566 (Nature Communications, 2019).
